These are literature values, as cited in patent publication US10627374B2, “LC-MS configuration for purification and detection of analytes having a broad range of hydrophobicites” (COHESIVE TECHNOLOGIES INC., priority 2010, dated 2020).

Read-outs that look alike come from different tables or passages of the source. Only a part of the results on these compounds is given; other tests are left out.

One may read the logP as a log measure of how a compound divides between an organic and an aqueous phase. Take `CCC(=O)N(c1ccccc1)C1CCN(CCc2ccccc2)CC1`: the logP (Table 1) is 4.59 and the logP (Table 2) is 4.59.
